UUG fidelity: alters start codon recognition fidelity in yeast | S. cerevisiae UUG-firefly luciferase reporter, luminescence/redox ratio | activity score, % at 18.7 µM | hit rate 0.13% among 350,000 | AID 602363;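 active means replicate mean at a twofold rise or more, about +100% in these data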;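 further: firefly luciferase made from a UUG start codon reports start codon fidelity; reporter light over untreated wells divided by growth signal over untreated wells; some hits fall short of that in this replicate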
MITF act: activators of MITF-driven TRPM1 promoter reporter, primary screen, cell-based, SK-MEL-5, luciferase, single point. SK-MEL-5 TRPM1-promoter luciferase, 24 h; % of positive control, neutral wells = 0. activation, % at 12.5 µM. 300,000 tested, 0.75% active;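 active = mean activation of at least 80% with every replicate also reaching 80%; inconclusive = mean reaches 80% but some replicate falls short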
esBAF inh: Bmi1 luciferase reporter increase in mESCs, primary screen, esBAF inhibitor project, mouse ES cells, Bmi1 luciferase knock-in, single point; 24 h; 100% = twice the neutral-well signal; reporter increase, % at 12.5 µM; 350,000 tested, 2% active; in the data active = activation above about 40%; inconclusive = no clear call, values can overlap the other calls;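 also: a rise in the Bmi1 reporter signal indicates esBAF inhibition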
PglD DTNB: C. jejuni PglD acetyltransferase inhibitors, primary screen, biochemical, DTNB colorimetric, single point | purified PglD enzyme, DTNB colorimetric CoA detection | inhibition, % at 12.5 µM | 360,000 tested, 0.098% active; in the data active = inhibition above about 16%, passing the limit was not always enough; inconclusive = no clear call, values can overlap the other calls
miR-122 sensor: miR-122 Renilla sensor signal increase in Huh7, primary screen, miR-122 inhibitor project, cell-based, single point, plate reader | Huh7 miR-122 Renilla luciferase sensor, 48 h; neutral wells = 0, positive control = 100 | activation (reporter increase), % at 12.5 µM | AID 602342, 2012 | 340,000 tested, 0.3% active;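 active = mean replicate activation score at least 90 and every replicate individually at or above 90; inconclusive = only one of the two criteria met; inactive = neither criterion met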;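 also: higher luciferase means less miR-122 activity so hits act as miR-122 inhibitors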
Wnt act: Wnt/beta-catenin pathway activators, primary screen, cell-based, plate reader, single point; activation, % at 9.35 µM; Wnt/beta-catenin reporter cell assay, activator; 300,000 tested, 1.2% active; in the data active = activation above about 30%, passing the limit was not always enough; inconclusive = no clear call, values can overlap the other calls
Large screens that a line does not name were inactive. Only some compounds are listed: those with a hit (about 2.8% of all), similar ones and a draw of the others.

COc1cccc(C(=O)Nc2ccc3c(c2)C(=O)N(C)C[C@H](OC)[C@H](C)CN(C(=O)C2CCCC2)[C@@H](C)CO3)c1	none (no result: MITF act, Wnt act)
Cc1ccc(S[C@]2(C(=O)NCc3ccccc3)CC(=O)N(C3CCCCC3)[C@@H]2c2ccc(CO)cc2I)cc1	none (no result: MITF act, esBAF inh, miR-122 sensor, Wnt act)
CO[C@H]1CC[C@H]2CCN(C)C(=O)[C@H](C)CN(C)C(=O)c3cccc(C#N)c3OC[C@H]1O2	none (no result: UUG fidelity, MITF act, miR-122 sensor, Wnt act)
OC(c1ccc(Cl)cc1)c1ncc(-c2ccccc2F)[nH]1 (stereo not drawn)	esBAF inh 51 (no result: MITF act)
OC(c1ccc(Cl)c(Cl)c1)c1ncc(-c2ccccc2F)[nH]1 (stereo not drawn)	miR-122 sensor 104 (no result: MITF act)
Cc1ccccc1-c1cnc(C(O)c2ccc(F)c(F)c2)[nH]1 (stereo not drawn)	miR-122 sensor 93 (no result: UUG fidelity, MITF act)
CSc1ccc(C(O)c2ncc(-c3ccccc3F)[nH]2)cc1 (stereo not drawn)	none (no result: MITF act)
OC(c1ccc(Cl)c(F)c1)c1ncc(-c2ccccc2F)[nH]1 (stereo not drawn)	miR-122 sensor inconclusive (no result: MITF act)
C/C=C/c1ccc([C@H]2[C@@H](CO)N(C(=O)NCCC)[C@@H]2CNC(=O)C2CCC2)cc1	none (no result: MITF act, Wnt act)
CC(=O)N1N=C2c3ccccc3CCC2C1c1ccc(F)cc1 (stereo not drawn)	none (no result: MITF act, esBAF inh)
CN(C)c1ccc(C2C3CCCc4ccccc4C3=NN2C)cc1 (stereo not drawn)	esBAF inh 47 (no result: UUG fidelity, PglD DTNB, miR-122 sensor)
CC(=O)C1=C(NC(=O)c2ccc(F)cc2)CC2C1C2(C)C (stereo not drawn)	none
C/C(NC(=O)c1ccccc1)=C1/C(=O)CC2C1C2(C)C (stereo not drawn)	MITF act inconclusive, esBAF inh 52
COc1ccc2[nH]c(=O)c(-c3nnn(-c4ccc(F)cc4)n3)cc2c1	none (no result: miR-122 sensor)
COc1ccc2[nH]c(=O)c(-c3nnn(-c4ccccc4)n3)cc2c1	esBAF inh 58
CN(C)c1ccc(N=Nc2ccc3ncccc3c2)cc1	none
Cc1cc(N(C)C)ccc1N=Nc1ccc2ncccc2c1	Wnt act 42
C[C@@H]1CN([C@@H](C)CO)C(=O)c2cc(NC(=O)Nc3ccccc3)ccc2O[C@@H]1CN(C)CC1CC1	none (no result: MITF act, Wnt act)
CN(C)CCn1c(NC(=O)c2ccc(Cl)cc2)nc2ccccc21	esBAF inh 56 (no result: Wnt act)
CCCn1c(NC(=O)c2cccc(C)c2C)nc2ccccc21	miR-122 sensor 118 (no result: Wnt act)
CCCn1c(NC(=O)C2CCN(C(=O)c3ccccc3C)CC2)nc2ccccc21	none (no result: miR-122 sensor)
CC(C)C(=O)Nc1ccc2c(c1)C(=O)N(C)[C@@H]1CC[C@@H](CC(=O)NCc3ccccc3F)O[C@H]1CO2	none (no result: MITF act, Wnt act)
C[C@@H]1CN([C@@H](C)CO)C(=O)c2cc(NC(=O)Nc3cccc4ccccc34)ccc2O[C@@H](C)CCCCO[C@@H]1CN(C)C(=O)Nc1ccccc1	none (no result: MITF act, Wnt act)
Cc1ccc(C2Nc3ccccc3-c3nc4ccccc4n32)o1 (stereo not drawn)	esBAF inh 68 (no result: miR-122 sensor, Wnt act)
Cc1ccc(NC(=O)c2cccc3cccnc23)cc1	esBAF inh 64
O=C(Nc1cccc2cccnc12)c1ccccc1Cl	none (no result: MITF act)
COc1ccccc1C(=O)Nc1cccc2cccnc12	esBAF inh 64 (no result: miR-122 sensor)
CC(=O)Nc1cccc(NC(=O)c2cccc3cccnc23)c1	none
O=C(NCCc1ccccc1F)c1cccc2cccnc12	esBAF inh 66 (no result: miR-122 sensor)
COC(=O)Cn1c(=NC(=O)c2ccc(Cl)s2)sc2cc(C)ccc21	MITF act 85 (no result: Wnt act)
Nc1nc(N)c2sc3nc4c(cc3c2n1)CCC4	esBAF inh 48 (no result: Wnt act)
CCc1cccc(NC(=O)CCc2c(C)nn(-c3ccc(N4CCCCC4)nn3)c2C)c1	none
CCc1ccc(NC(=O)CCc2c(C)nn(-c3ccc(N4CCCCC4)nn3)c2C)cc1	esBAF inh 62
Cc1nn(-c2ccc(N3CCCCC3)nn2)c(C)c1CCC(=O)Nc1ccc(F)cc1	none
CCOc1ccc(NC(=O)CCc2c(C)nn(-c3ccc(N4CCCCC4)nn3)c2C)cc1	esBAF inh 52

Screening data deposited in PubChem BioAssay by Broad Institute.
